This note sets out measurements from patent US20240417393A1, “CERTAIN 2,5-DIAZABICYCLO[4.2.0]OCTANES AS GLP-1 RECEPTOR MODULATORS” (ASTRAZENECA AB, priority 2021, published 2024).

Protein sequences, listed by entry. Tags and fused reporters are not part of them. Lines headed by an entry give the natural chain unless they say otherwise; changes in a name come on top.
UniProt Q14432: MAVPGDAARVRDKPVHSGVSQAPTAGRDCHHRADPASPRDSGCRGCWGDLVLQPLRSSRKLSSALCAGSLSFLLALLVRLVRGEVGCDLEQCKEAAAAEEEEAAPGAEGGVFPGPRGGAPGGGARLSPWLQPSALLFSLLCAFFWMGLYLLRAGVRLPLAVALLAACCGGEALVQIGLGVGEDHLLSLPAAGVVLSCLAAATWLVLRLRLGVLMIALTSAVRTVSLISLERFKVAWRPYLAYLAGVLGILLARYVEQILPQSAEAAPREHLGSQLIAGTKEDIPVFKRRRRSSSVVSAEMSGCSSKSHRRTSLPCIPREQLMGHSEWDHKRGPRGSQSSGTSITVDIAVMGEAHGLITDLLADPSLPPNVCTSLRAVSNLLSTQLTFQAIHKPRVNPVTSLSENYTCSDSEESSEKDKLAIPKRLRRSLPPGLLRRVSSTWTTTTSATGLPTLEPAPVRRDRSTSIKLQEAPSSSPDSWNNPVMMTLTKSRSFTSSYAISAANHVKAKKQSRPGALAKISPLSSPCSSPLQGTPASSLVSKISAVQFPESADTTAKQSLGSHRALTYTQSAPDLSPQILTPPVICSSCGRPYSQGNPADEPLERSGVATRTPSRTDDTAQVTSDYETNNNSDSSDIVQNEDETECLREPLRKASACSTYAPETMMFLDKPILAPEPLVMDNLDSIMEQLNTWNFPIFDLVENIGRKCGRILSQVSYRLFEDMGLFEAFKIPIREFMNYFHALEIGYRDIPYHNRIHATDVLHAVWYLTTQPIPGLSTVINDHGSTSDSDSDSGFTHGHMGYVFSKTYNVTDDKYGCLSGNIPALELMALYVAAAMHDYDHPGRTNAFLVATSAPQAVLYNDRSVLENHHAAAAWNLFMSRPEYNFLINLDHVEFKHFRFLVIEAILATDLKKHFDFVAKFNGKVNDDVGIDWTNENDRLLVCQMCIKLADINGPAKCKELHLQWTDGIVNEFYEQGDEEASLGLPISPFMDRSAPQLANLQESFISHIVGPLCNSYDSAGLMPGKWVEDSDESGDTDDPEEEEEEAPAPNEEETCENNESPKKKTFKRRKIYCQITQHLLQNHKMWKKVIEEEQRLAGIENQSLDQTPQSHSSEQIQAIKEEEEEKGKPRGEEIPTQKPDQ

In this test the target is T1, human phosphodiesterase-3A (Homo sapiens, UniProt Q14432).
T1 construct: host or cells: Sf9 (Spodoptera frugiperda) cells
Briefly: PDE3 Assay ([3H]cAMP to 5'AMP, SPA). Format: biochemical. The conditions noted are these: human recombinant PDE3A expressed in Sf9 cells; 450 nM cAMP; 20 min at 22° C. The protocol: Evaluation of the effects of compounds on the activity of the human phosphodiesterase-3A is quantified by measuring the formation of 5′AMP from cAMP using a human recombinant is enzyme expressed in a clonal isolate of Spodoptera frugiperda cells (Sf9) cells.
The test compound, reference compound or water (control) are added to a buffer containing 40 mM tris(hydroxymethyl)aminomethane (Tris)/HCl (pH 7.4) and 8 mM MgCl2, 450 nMcAMP and 0.25 μCi [^3H]cAMP.
Thereafter, the reaction is initiated by addition of the enzyme (about 1U) and the mixture is incubated for 20 min at 22° C.
For basal control measurements, the enzyme is omitted from the reaction mixture.
Following incubation SPA beads are added. After 30 min at 22° C. under shaking, the amount of [^3H]5′AMP is quantified with a scintillation counter (Topcount, Packard).
The results are expressed as a percent inhibition of the control enzyme activity. The standard inhibitory reference compound is milrinone (CAS number 78415-72-2), which is tested in each experiment at several concentrations to obtain an inhibition curve from which its IC50 value is calculated.

As to `COc1cc(C(=O)O)cc2c1nc(CN1CCN(c3cccc4c3O[C@@](C)(c3ccc(Cl)cc3F)O4)[C@H]3CC[C@@H]31)n2C[C@@H]1CCO1` (single isomer, unassigned) [Example 4a, 2-(((1R*,6R*)-5-((R*)-2-(4-Chloro-2-fluorophenyl)-2-methylbenzo[d][1,3]dioxol-4-yl)-2,5-diazabicyclo[4.2.0]octan-2-yl)methyl)-4-methoxy-1-(((S)-oxetan-2-yl)methyl)-1H-benzo[d]imidazole-6-carboxylic acid], the IC50 is above 74 µM.
